The target in the assay is T1, Histone deacetylase-like amidohydrolase (Alcaligenes sp. (strain DSM 11172) (Bordetella sp. (strain FB188)), UniProt Q70I53).
T1 sequence (Q70I53 whole entry): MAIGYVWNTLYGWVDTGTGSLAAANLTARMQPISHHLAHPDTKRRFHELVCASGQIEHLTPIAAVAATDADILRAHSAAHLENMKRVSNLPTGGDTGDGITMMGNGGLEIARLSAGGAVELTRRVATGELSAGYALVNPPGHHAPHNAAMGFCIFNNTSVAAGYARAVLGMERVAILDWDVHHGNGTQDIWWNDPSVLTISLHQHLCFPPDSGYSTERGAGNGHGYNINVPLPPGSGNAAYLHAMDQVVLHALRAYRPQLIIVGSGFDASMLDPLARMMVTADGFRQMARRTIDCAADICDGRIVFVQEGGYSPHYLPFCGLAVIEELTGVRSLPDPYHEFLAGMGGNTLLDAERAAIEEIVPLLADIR
The experiment in a line: Inhibition of Bordetella FB188 HDAH using Boc-L-Lys(acetyl)-MCA as substrate by fluorogenic enzymatic assay. Summed up: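 Two-step fluorogenic assay with purified recombinant HDAH. Substrate (20 µM final) is deacetylated, then trypsin releases 7-amino-4-methylcoumarin (ex 390, em 460 nm). […] Ki derived from IC50 by Cheng–Prusoff.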

The structures appear in SMILES notation.

A word on the Kd: it is the free concentration of one partner at which half of the binding sites on the other are occupied at equilibrium, for simple one-to-one binding. A high value points to lower affinity. The compound `O=C(CCCCCCC(=O)Nc1ccccc1)NO` [VORINOSTAT] came in with a Kd of 300 nM. This counts as sub-micromolar.
